Laboratory results published in patent US8021570B2, “β-peptide lyotropic liquid crystals and methods of manufacture and use thereof” (Wisconsin Alumni Research Foundation, priority 2006, dated 2011).

Assay: Optical microscopy of aqueous β-peptide solutions between crossed polarizing filters (birefringence = LC phase formation)
Assay type: physicochemical
Settings: aqueous solution, room temperature
Text: The inventors used optical microscopy for initial evaluation of aqueous solutions of 1-5. For each β-peptide, aqueous solutions of varying concentration were drawn into microcapillaries and examined between crossed polarizing filters at room temperature (FIGS. 1 and 3). In such experiments, the observation of birefringence is taken as evidence of LC phase formation. […] Increasing β-peptide length by one triad, to generate 3, led to LC behavior at lower concentrations, as shown by the image obtained for a 10 wt % sample (61 mM, FIG. 1C). […]
β-Peptides were weighed into glass vials, diluted to the desired concentration with water, and left on an oscillatory shaker overnight to ensure dissolution. β-peptide solutions were then drawn into a 2 μL microcapillary (Drummond), and the ends were sealed with a high viscosity vacuum grease (Dow-Corning) Microcapillaries were placed on a glass slide and imaged on an Olympus BX-60 microscope (Tokyo, Japan) in transmission mode between crossed polarizing filters using a digital camera (Olympus C2020 Zoom). […] Temperature was recorded from a thermostat but was not further calibrated.
Materials and Methods • Materials. […] To assess the upper limit of concentration, a 1 μL droplet of a concentrated peptide solution was allowed to slowly evaporate while being monitored for birefringence. […]

biotin-β^3-hGly-β^3-hTyr-(ACHC-ACHC-β^3-hLys)3 [entry 14]
concentration at which birefringence / LC phase formation is observed: 6 wt %
